System: MCF-7 cell lines
Assay: MTT antiproliferative assay
Conditions: read-out: MCF-7 (IC50); virtually screened NCI hits, Table S17

Structure (SMILES): O=C(O)c1ccccc1-n1c2ccccc2c2ccccc21 [Compound 10211]
- IC50: 73.9 ± 11.4 µM

From article PMC9101642 (Molecules, 2022)
